Experimental data as given in BindingDB's records for doi:10.1016/0028-3908(88)90149-9 (Organon International, 1988).
Values joined by “and” are separate entries in the source; they are usually repeats but may differ in a detail not shown here. Equal entries are not always repeated.

Amino acid sequences for entries named in this document (tags omitted).
UniProt P23977, whole entry: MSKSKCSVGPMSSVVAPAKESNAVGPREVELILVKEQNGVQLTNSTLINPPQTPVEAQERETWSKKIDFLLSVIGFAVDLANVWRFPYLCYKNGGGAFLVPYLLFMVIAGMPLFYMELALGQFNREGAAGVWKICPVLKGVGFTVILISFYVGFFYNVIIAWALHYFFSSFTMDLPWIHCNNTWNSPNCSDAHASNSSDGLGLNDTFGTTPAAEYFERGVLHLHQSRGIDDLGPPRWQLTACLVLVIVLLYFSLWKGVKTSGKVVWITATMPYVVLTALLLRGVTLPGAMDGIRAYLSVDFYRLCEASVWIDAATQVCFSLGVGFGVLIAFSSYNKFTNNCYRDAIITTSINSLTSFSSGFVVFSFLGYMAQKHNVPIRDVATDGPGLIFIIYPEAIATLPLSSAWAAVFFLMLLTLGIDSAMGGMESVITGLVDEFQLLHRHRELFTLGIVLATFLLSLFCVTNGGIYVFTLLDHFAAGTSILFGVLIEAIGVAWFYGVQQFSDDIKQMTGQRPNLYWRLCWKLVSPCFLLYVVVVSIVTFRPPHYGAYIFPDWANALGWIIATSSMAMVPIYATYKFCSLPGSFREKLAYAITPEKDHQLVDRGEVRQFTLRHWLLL
UniProt P31652, whole entry: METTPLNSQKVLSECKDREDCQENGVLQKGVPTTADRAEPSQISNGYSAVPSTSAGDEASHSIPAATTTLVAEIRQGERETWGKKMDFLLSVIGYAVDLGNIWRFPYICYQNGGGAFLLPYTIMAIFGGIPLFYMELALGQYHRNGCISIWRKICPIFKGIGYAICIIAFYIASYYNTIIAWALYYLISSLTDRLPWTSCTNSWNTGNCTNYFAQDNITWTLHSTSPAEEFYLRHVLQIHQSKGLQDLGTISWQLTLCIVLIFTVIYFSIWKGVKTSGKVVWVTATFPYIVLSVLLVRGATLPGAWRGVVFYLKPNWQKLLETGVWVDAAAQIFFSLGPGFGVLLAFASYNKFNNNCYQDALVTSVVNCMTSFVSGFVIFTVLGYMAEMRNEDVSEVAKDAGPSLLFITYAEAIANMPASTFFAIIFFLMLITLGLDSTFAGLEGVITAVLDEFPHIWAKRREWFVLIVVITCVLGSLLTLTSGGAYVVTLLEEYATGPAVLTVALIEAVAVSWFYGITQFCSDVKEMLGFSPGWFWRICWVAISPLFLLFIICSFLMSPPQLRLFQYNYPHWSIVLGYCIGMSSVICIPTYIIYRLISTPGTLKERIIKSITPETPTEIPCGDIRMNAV
UniProt P31390, whole entry: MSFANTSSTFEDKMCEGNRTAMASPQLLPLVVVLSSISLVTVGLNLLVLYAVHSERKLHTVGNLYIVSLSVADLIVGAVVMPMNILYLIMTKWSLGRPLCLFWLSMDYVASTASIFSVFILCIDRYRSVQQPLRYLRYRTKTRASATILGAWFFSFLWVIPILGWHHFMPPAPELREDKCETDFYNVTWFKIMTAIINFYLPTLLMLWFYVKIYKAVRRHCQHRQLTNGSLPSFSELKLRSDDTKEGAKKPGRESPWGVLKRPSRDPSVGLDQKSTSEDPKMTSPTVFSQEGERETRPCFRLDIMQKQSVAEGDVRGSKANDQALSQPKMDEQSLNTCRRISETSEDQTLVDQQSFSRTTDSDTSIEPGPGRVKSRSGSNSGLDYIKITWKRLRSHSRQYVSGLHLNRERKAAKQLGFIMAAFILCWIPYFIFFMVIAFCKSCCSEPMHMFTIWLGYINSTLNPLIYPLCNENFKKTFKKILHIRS
UniProt P61169, whole entry: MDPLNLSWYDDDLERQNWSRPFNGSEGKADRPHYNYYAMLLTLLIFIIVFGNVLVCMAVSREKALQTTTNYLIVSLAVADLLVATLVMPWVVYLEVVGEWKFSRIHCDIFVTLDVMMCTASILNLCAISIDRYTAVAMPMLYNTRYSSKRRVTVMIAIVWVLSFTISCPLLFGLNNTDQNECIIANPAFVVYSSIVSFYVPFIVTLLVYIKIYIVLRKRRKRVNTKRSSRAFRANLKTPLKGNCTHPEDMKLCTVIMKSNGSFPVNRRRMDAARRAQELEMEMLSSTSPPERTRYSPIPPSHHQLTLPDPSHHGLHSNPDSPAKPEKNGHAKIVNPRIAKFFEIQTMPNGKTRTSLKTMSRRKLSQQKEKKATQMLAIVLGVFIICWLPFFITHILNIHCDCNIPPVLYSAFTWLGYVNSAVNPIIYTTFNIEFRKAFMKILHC

How the values were obtained:
[1] = target: Sodium-dependent dopamine transporter (Rattus norvegicus, UniProt P23977)
[2] = target: Sodium-dependent serotonin transporter (Rattus norvegicus, UniProt P31652)
Histamine H1 receptor = Histamine H1 receptor (Rattus norvegicus, UniProt P31390)
D(2) dopamine receptor = D(2) dopamine receptor (Rattus norvegicus, UniProt P61169)

Compound `CN(C)CCCN1c2ccccc2CCc2ccccc21` has a Ki [1] of over 10000 nM.

`CN1Cc2c(N)cccc2[C@H](c2ccccc2)C1` [(+/-)-2-Methyl-4-phenyl-1,2,3,4-tetrahydro-isoquinolin-8-ylamine] gave a Ki [2] of 3980 nM.

With `CN1CCN2c3ccccc3Cc3ccccc3[C@H]2C1` [MIANSERIN (+)] the Ki (Histamine H1 receptor) was 1.78 nM and 1 nM and 4.07 nM and the Ki (D(2) dopamine receptor) was over 10000 nM.
